Ab-14 heavy chain CDR variants: yeast mating affinities

Binding partner: SARS-CoV-2 spike HR2 peptide, sequence PDVDLGDISGINAS.

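The parent was found by panning a naive human phage display library on the peptide. This is the validation round: designs drawn from the data on random variants, tested in the same kind of assay. Their group label is 14H_En_Gibbs (En: ensemble of fine-tuned language models; Gibbs: Gibbs sampling). The scFvs were displayed on barcoded MATa yeast, the peptide on MATalpha yeast. Mating (16 h, 30 °C) was followed by selection of diploids and sequencing of their barcodes. A regression on co-assayed BCL2-family reference pairs converts the normalised counts of each replicate to an apparent Kd. There are six technical replicates.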

Each scFv is VH, the linker GGGGSGGGGSGGGGS, VL, as in the parent Ab-14, and differs from it in the CDRs of the heavy chain only.
VH: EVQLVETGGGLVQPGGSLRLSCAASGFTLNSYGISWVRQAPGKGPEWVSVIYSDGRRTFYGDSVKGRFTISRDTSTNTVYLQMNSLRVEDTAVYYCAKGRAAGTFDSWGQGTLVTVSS
VL: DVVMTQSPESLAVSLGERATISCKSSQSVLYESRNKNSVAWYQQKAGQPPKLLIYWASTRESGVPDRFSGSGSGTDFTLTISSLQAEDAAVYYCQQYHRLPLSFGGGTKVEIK

The parent's heavy chain CDRs are GFTLNSYGIS, VIYSDGRRTFYGDSVK, GRAAGTFDS; each variant's own CDRs replace them letter for letter. Numbers give log10(Kd / nM), so 0 is 1 nM and 3 is 1 µM. Smaller is tighter. The mean shown is taken over the replicates in which the pair was detected. "nd" marks a missing value. The strain was present, yet no cells mated with the target were sequenced in that replicate, which points to weak or no binding. In the paper, a design with two or fewer of six values counts as a poor binder.

| # | CDR-H1 | CDR-H2 | CDR-H3 | log10 Kd, replicates | mean log10 Kd (nM) | control signals |
|---|---|---|---|---|---|---|
| 1 | GFDIQEYGIS | VIYADGMRVSYTNTVK | GGNSMISAT | nd / nd / nd / nd / nd / nd | nd | 0/18 |
| 2 | GGNLDEYGIS | VIYADGKRRQYVDNVK | GSHADMFDM | nd / nd / nd / nd / nd / nd | nd | 0/18 |
| 3 | GVDIDEYGIS | VIYADGIRTFYIDKVK | GNMGGQFDM | nd / nd / nd / nd / nd / nd | nd | 0/18 |
| 4 | GFDLEEMGIS | VIYADGSRKKYQDAVK | GGVSGDFDE | nd / nd / nd / nd / nd / nd | nd | 0/18 |
| 5 | GFGLGEYGIS | VIYADGHRTAYSTSVK | GTIGGTFFN | 0.68 / 1.35 / 1.09 / 1.25 / 0.75 / 1.11 | 1.04 | 0/18 |
| 6 | GFNLNDYGIS | VIYADGHRASMVDNVK | GHLAGTFFM | nd / nd / nd / nd / nd / nd | nd | 1/18 (1.40) |
| 7 | GFSIDEYGIS | VIYADGARASYAPKVK | GQYAGDLIE | nd / nd / 2.65 / 2.58 / nd / nd | 2.62 | 0/18 |
| 8 | GFDLDEEGIS | VIYADGMRTAYAQKVK | GQETDTNVT | nd / nd / nd / nd / nd / nd | nd | 0/18 |
| 9 | GFQLDEVGIS | VIYADGIRRAYASKVK | GGNGGSFDL | nd / nd / nd / nd / nd / nd | nd | 0/18 |
| 10 | GKDLDEYGIS | VIYADGARKAYQNYFK | GGQAGTFVN | nd / nd / nd / nd / nd / nd | nd | 0/18 |
| 11 | GFGIDEYGIS | VIYADGQRKMYQDNVK | GNVGSLFSV | nd / nd / nd / nd / nd / nd | nd | 0/18 |
| 12 | GSDLEEYGIS | VIYADGMRKQYTNSVK | GEDSVTTFT | nd / nd / nd / nd / nd / nd | nd | 0/18 |
| 13 | GFALNEYGIS | VIYADGFRRSYQDKVK | GHNAGEFSV | nd / nd / nd / nd / nd / nd | nd | 0/18 |
| 14 | GFDLEKYGIS | VIYADGYRSAYASNVK | GGHAGTFHF | 0.73 / 0.64 / 0.35 / 0.56 / 0.67 / 0.99 | 0.66 | 0/18 |
| 15 | GFDIEEYGIS | VIYADGKRAAYADAVK | GENMDMMTD | nd / nd / nd / nd / nd / nd | nd | 0/18 |
| 16 | GFSIDEYGIS | VIYADGVRTAVDTSVK | GQLAAYFDK | nd / nd / nd / nd / nd / nd | nd | 0/18 |
| 17 | GVDLDEYGIS | VIYADGHRRFYADDVK | GNDIGGFDL | nd / nd / nd / nd / 1.48 / nd | 1.48 | 0/18 |
| 18 | GFEIQEFGIS | VIYADGFRTAYAENVK | GTLAGTFTT | 1.21 / 0.72 / 0.29 / 0.40 / 0.88 / 0.48 | 0.67 | 0/18 |
| 19 | GFDLREYGIS | VIYADGRRVAYNDKVK | GELTGTFDQ | nd / nd / nd / nd / nd / 1.41 | 1.41 | 0/18 |
| 20 | GFKLDEYGIS | VIYADGLRMHYANAVK | GEGAGTFTT | 2.41 / nd / nd / 3.40 / 2.37 / 2.05 | 2.56 | 1/18 (3.20) |
| 21 | GFDIDEYGIS | VIYADGTRTAVDPSFK | GQMAGFFDE | nd / nd / nd / nd / nd / nd | nd | 1/18 (2.82) |
| 22 | GFNLDEFGIS | VIYADGMRRAYSDEVK | GGFSDILLM | nd / nd / nd / nd / nd / nd | nd | 1/18 (2.95) |
| 23 | GNDLSEYGIS | VIYADGIRTNYSQNVK | GTLAGTFTQ | 4.17 / nd / 2.42 / nd / nd / nd | 3.30 | 0/18 |
| 24 | GFDLEKYGIS | VIYADGQRVSYDSSVK | GENAGYFMD | nd / 1.72 / nd / nd / nd / 1.91 | 1.82 | 1/18 (2.28) |
| 25 | GFDLQEYGIS | VIYADGKRSMYSNDVK | GELGLGELI | nd / nd / nd / nd / nd / nd | nd | 0/18 |
| 26 | GFKINEYGIS | VIYADGQRVAYTNSFK | GTQAGMFFN | nd / nd / nd / nd / nd / nd | nd | 0/18 |
| 27 | GFDLDKEGIS | VIYADGIRTAYQDSVK | GQNVATFNV | nd / nd / nd / nd / nd / nd | nd | 0/18 |
| 28 | GFDINEMGIS | VIYADGQRLAYAQEVK | GENTGTFGF | 1.95 / 2.60 / 2.64 / nd / nd / nd | 2.40 | 0/18 |
| 29 | GFDLEEMGVS | VIYADGIRFAYAQKVK | GQAAGAFDL | nd / nd / nd / nd / nd / nd | nd | 0/18 |
| 30 | GDKLEDYGIS | VIYADGRRSAYVENVK | GVYAGYFDV | nd / nd / nd / nd / nd / nd | nd | 0/18 |

Excerpt, the first 3 entries:

| CDR-H1 | CDR-H2 | CDR-H3 | log10 Kd, replicates | mean log10 Kd (nM) | control signals |
|---|---|---|---|---|---|
| GFDIQEYGIS | VIYADGMRVSYTNTVK | GGNSMISAT | nd / nd / nd / nd / nd / nd | nd | 0/18 |
| GGNLDEYGIS | VIYADGKRRQYVDNVK | GSHADMFDM | nd / nd / nd / nd / nd / nd | nd | 0/18 |
| GVDIDEYGIS | VIYADGIRTFYIDKVK | GNMGGQFDM | nd / nd / nd / nd / nd / nd | nd | 0/18 |

The range of this assay differs from that of the first round, and the authors advise against merging the two. Of ten entries with the parent sequence, four were seen in most replicates (averages 0.34 to 2.37), three in one and three in none, so single entries are noisy. Empty control strains, which show no peptide, gave a signal in 1% of pairings with all heavy chain designs; the median was 2.08 and 95% of these signals were weaker than 0.84. No background was subtracted. For each scFv, signals with the empty controls are counted beside the result, with their mean in brackets.

From the AlphaSeq antibody data of Li et al. 2023 (doi:10.1038/s41467-023-39022-2), copy in the FLAb collection.